Species on record: Mus musculus
Test: Bioavailability in Swiss Webster mouse relative to AUDA
Format: ADME, organism-based
Conditions: in vivo

| SMILES | Ratio AUC |
| --- | --- |
| CCCCOC(=O)CCCCCCCCCCCNC(=O)NC12CC3CC(CC(C3)C1)C2 | 1.3 |
| CC(C)COC(=O)CCCCCCCCCCCNC(=O)NC12CC3CC(CC(C3)C1)C2 | 1.4 |
| CCC(C)OC(=O)CCCCCCCCCCCNC(=O)NC12CC3CC(CC(C3)C1)C2 (centres undefined) | 0.6 |
| CC(C)OC(=O)CCCCCCCCCCCNC(=O)NC12CC3CC(CC(C3)C1)C2 | 1.1 |

From ChEMBL document CHEMBL1144497 (Bioorg Med Chem, 2007)
